Log K data for 1 compound are collected here from ChEMBL document CHEMBL1123886 (J Med Chem, 1987).

The assay concerns Calf thymus DNA. Kind of assay: Binding constant for DNA by ethidium bromide displacement. Format: nucleic-acid assay. The following applies: Bos taurus.

Regarding `CNc1cc(NS(C)(=O)=O)ccc1Nc1c2ccccc2nc2ccccc12`, the Log K turned out to be 6.42.
